SMILES strings stand for the structures.

Protein sequences, listed by entry. Tags and fused reporters are not part of them. Chains listed by the source or under a name are the forms on record and can include a tag or linker.
UniProt P13569, with tags, fused parts or gaps DEL508-508: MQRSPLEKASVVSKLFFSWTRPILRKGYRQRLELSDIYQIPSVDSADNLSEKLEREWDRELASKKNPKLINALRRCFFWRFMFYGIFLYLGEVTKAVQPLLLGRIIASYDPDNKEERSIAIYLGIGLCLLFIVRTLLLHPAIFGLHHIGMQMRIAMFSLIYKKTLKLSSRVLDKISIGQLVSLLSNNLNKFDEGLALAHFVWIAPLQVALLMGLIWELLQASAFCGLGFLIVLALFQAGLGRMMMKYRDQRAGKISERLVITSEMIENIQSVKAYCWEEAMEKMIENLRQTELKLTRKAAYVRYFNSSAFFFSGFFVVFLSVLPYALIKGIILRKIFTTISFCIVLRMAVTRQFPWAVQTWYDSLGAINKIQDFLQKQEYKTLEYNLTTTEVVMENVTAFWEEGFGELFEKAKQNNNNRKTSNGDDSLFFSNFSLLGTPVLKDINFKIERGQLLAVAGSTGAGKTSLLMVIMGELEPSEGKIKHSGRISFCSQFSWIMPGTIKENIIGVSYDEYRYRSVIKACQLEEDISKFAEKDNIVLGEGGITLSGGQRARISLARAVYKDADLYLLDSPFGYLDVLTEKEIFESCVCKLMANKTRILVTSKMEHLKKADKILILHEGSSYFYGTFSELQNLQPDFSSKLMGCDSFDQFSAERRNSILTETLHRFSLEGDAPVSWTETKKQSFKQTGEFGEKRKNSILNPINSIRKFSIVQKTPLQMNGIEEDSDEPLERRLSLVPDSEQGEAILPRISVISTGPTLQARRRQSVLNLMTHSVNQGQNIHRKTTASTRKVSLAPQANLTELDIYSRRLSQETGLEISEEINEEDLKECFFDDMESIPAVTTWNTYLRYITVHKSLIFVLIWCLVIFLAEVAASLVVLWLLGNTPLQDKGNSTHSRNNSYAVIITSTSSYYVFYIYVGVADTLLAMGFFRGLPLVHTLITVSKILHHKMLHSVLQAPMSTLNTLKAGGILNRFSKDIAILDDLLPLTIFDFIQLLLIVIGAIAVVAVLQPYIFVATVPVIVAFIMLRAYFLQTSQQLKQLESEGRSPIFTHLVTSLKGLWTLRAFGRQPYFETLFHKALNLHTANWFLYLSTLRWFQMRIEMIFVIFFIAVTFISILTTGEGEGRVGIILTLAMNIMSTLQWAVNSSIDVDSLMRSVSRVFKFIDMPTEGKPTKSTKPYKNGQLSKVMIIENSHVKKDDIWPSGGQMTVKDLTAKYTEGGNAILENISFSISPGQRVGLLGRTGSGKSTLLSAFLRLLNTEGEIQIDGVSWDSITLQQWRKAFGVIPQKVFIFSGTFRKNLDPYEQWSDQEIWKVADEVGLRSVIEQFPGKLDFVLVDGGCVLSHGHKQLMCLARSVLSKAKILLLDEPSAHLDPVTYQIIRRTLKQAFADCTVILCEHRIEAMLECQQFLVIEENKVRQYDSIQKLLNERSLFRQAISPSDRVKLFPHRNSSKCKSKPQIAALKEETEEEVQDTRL

For this test, the target named is ΔF508-CFTR (Homo sapiens, UniProt P13569, DEL508-508). The experiment in a line: Fluorescence (YFP-H148Q/I152L) I− influx assay of ΔF508-CFTR potentiator activity in FRT cells. The following applies: 27° C. 24 h, forskolin 20 μM.
The mark [1] stands for this setting: phenylglycine containing compounds.
Where [2] appears, read: sulfonamide containing compounds.

As for `Cc1ccc(C(C(=O)Nc2ccc(C(C)C)cc2)N(Cc2ccco2)C(=O)Cc2c[nH]c3ccccc23)cc1` (centres unmarked), under setting [1], the Ka entry is “Moderate Activity”. In the case of `CC(C)CCNC(=O)c1c[nH]c2ccc(S(=O)(=O)N3CCc4ccccc43)cc2c1=O`, the Ka under setting [2] was found to be 0.76 µM. On the same count and under the same terms, the same measure for `COc1ccccc1CNC(=O)c1c[nH]c2ccc(S(=O)(=O)N3CCC4(CC3)OCCO4)cc2c1=O`: 0.80 µM; for `CCCCCNC(=O)c1c[nH]c2ccc(S(=O)(=O)N3CCC4(CC3)OCCO4)cc2c1=O`: 0.88 µM. Regarding `CN(C(=O)Cc1c[nH]c2ccccc12)C(C(=O)Nc1ccc2c(c1)OCCO2)c1ccccc1` (centres unmarked), under setting [1], the Ka turned out to be 0.40 µM.

The values above are taken from US7939558B2, “Compounds having activity in increasing ion transport by mutant-CFTR and uses thereof” (The Regents of the University of California, priority 2004, dated 2011).
